Literature values as cited in patent US5086047A, “Novel steroids” (Roussel Uclaf, Department des Brevets, priority 1989, dated 1992).

System: Aromatase
Settings: attacks enzymatic processes other than that which leads from androgens to estrogens; cited from earlier work

CCC1(c2ccc(N)cc2)CCC(=O)NC1=O (stereo not shown) [Aminogluthetimide]
specificity to Aromatase: not being specific to Aromatase
